## scFv variants of Ab-14 (heavy chain) against a SARS-CoV-2 spike peptide

From the AlphaSeq antibody data of Engelhart et al. 2022 (doi:10.1038/s41597-022-01779-4), copy in the FLAb collection.

Antigen: PDVDLGDISGINAS, a 14-residue peptide of the SARS-CoV-2 spike HR2 region.

Parent scFv Ab-14: VH joined to VL by the linker GGGGSGGGGSGGGGS. Changes lie in the heavy chain CDRs alone.
VH: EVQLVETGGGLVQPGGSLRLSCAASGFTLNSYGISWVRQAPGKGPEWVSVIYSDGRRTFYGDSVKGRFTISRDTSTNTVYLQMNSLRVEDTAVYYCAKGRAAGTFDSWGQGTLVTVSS
VL: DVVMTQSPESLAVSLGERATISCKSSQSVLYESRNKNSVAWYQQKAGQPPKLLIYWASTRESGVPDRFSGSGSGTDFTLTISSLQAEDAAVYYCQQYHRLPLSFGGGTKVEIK

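Phage display of a naive human antibody library on the peptide gave the parent. AAYL49 was designed without a model: most single CDR substitutions and a random sample of double and triple ones. The scFvs were displayed on barcoded MATa yeast, the peptide on MATalpha yeast. Binding brings cells together so that they mate, and sequencing counts the barcode pairs among the diploids. A regression on co-assayed BCL2-family reference pairs converts the normalised counts of each replicate to an apparent Kd. The assay was run in three technical replicates.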

Changes read parent residue, position, new residue, counted from the first residue of the VH shown. Every variant below is changed at G55 of the VH (sequential numbering). Affinities are written as log10 Kd with Kd in nM; a lower number is a better binder. "n.d." marks a missing value. The strain was present, yet no cells mated with the target were sequenced in that replicate, which points to weak or no binding. Three control strains display no target. For library AAYL49, 15% of the pairings with them gave a signal, with a median of 4.06 and one signal in twenty below 2.83, so weak values seen in few replicates may be background. For each scFv, signals with the empty controls are counted beside the result, with their mean in brackets.

changes,log10 Kd (nM) by replicate,control signals
G55V R56H,n.d. 3.18 n.d.,1/9 (3.17)
G26P L29Y G55V,6.00 5.10 4.19,3/9 (5.07)
G55E Y60N G99H,n.d. n.d. n.d.,0/9
Y52C D54L G55H,n.d. n.d. 5.58,2/9 (3.23)
S53F G55Q D62G,n.d. n.d. n.d.,1/9 (2.04)
G55T T104V F105W,3.79 5.21 5.40,6/9 (4.26)
G55E D62F G99R,n.d. n.d. 5.34,2/9 (4.02)
D54F G55I A101H,n.d. n.d. n.d.,0/9
G55F A101M G103T,5.06 3.79 n.d.,5/9 (3.90)
G55L A102T,n.d. 4.97 n.d.,4/9 (3.52)
V50M G55V,n.d. n.d. n.d.,0/9
G55W R100I,n.d. n.d. n.d.,0/9
I51Y G55H F105E,n.d. n.d. n.d.,0/9
G26Y G55S G103S,n.d. n.d. n.d.,0/9
G26M F27G G55Y,n.d. n.d. n.d.,1/9 (4.43)
I34S G55D S63Q,4.55 n.d. n.d.,1/9 (3.25)
G55A K65L,4.99 n.d. 3.80,5/9 (3.72)
I34N G55W R100P,5.19 n.d. 5.08,9/9 (4.77)
G33L G55E A102T,n.d. n.d. n.d.,0/9
I51F G55S,n.d. n.d. 5.38,2/9 (3.05)
G55E R56H,n.d. n.d. n.d.,0/9
Y52E G55P A102V,n.d. n.d. n.d.,0/9
S35D G55E T58Y,n.d. n.d. n.d.,0/9
G55H A102E,n.d. n.d. n.d.,0/9
V50S G55I F105C,n.d. n.d. n.d.,1/9 (3.17)
G55A F59V D62A,4.29 n.d. n.d.,0/9
V50E G55K K65R,n.d. n.d. 3.59,0/9
G55A S63I A102R,n.d. 4.44 n.d.,2/9 (3.52)
F27I G55K T58Q,n.d. 3.63 n.d.,1/9 (2.69)
G55M T58E K65M,n.d. 4.90 n.d.,3/9 (4.40)
L29K I51S G55C,6.01 3.94 4.53,6/9 (3.86)
T28D G55Q R57H,2.09 3.61 4.38,1/9 (4.26)
N30M Y52D G55W,4.43 n.d. n.d.,4/9 (3.80)
S31F Y32V G55W,n.d. n.d. n.d.,1/9 (4.01)
L29W D54G G55E,n.d. n.d. n.d.,0/9
Y52P G55T D106I,n.d. n.d. n.d.,0/9
G55K A101T S107I,n.d. n.d. n.d.,1/9 (3.74)
I34T G55N,n.d. n.d. n.d.,0/9
Y52P G55Q F59G,3.79 n.d. n.d.,2/9 (2.97)
G55C R100P,n.d. n.d. n.d.,0/9

Parent in this assay: reference entry 0.65, copy in this library 4.11 (one replicate of three).